# Laboratory results: patent US12240882B2, “Fusion proteins comprising an engineered knottin peptide and uses thereof” (The Board of Trustees of the Leland Stanford Junior …, priority 2010, dated 2025)
# Amino acid sequences for entries named in this document (tags omitted). Residues count along the entry.
# UniProt P05106, 27-788: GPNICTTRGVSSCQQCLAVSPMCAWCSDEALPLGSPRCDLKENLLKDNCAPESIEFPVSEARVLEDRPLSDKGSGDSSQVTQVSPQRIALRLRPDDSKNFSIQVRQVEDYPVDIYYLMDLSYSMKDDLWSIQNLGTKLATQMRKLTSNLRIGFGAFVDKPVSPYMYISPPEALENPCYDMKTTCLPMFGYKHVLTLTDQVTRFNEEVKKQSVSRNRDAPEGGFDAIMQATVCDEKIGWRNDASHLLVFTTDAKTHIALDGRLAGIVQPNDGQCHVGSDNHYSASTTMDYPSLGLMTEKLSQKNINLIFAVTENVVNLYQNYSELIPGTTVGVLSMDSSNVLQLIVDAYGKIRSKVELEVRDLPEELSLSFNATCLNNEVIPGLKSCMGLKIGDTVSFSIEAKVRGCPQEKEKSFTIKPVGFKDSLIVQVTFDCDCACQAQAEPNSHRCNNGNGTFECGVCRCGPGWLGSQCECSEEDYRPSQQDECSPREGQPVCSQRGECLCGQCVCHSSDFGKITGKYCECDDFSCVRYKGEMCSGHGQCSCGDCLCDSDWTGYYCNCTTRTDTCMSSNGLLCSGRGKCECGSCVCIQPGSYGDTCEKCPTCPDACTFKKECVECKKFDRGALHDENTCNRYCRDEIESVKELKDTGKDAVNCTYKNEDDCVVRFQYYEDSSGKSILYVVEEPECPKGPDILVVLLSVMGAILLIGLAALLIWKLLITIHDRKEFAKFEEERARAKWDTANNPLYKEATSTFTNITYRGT
# UniProt P06756, 891-1048 partner limits assumed: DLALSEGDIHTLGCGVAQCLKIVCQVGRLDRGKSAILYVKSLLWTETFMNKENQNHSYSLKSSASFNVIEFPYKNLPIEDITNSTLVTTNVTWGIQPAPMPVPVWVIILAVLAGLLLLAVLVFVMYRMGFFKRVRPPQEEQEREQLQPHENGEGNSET
# UniProt P06756, 31-889 limits assumed: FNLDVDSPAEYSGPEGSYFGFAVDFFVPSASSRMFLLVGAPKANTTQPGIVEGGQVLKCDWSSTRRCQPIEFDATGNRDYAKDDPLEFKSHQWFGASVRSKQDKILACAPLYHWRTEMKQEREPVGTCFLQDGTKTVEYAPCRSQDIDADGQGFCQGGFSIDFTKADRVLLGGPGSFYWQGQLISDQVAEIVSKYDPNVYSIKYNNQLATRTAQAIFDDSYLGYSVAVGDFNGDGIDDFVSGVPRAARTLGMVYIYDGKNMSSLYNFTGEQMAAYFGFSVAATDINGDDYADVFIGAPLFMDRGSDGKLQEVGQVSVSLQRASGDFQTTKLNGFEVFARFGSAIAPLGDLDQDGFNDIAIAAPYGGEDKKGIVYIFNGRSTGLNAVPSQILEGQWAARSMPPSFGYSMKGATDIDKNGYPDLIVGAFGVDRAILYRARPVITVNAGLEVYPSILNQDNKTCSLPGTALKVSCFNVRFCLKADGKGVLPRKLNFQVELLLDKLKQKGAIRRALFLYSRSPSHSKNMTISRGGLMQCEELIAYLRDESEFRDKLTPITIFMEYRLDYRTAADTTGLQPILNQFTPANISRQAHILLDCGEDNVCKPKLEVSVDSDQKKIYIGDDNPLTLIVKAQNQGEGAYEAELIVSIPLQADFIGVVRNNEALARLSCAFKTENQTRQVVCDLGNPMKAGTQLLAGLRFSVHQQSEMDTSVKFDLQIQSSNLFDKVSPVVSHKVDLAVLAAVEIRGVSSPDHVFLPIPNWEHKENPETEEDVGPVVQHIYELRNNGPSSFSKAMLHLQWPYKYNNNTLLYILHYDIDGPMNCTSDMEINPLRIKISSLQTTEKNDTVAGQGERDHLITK
# Columns and labels:
# [1] = circular dichroism
# αvβ3 integrin = αvβ3 integrin (Homo sapiens, UniProt P05106+P06756); experiment: Yeast display binding of EETI 2.5D-Axl fusion to soluble αvβ3 integrin; settings: 20, 50 or 100 nM αvβ3 integrin
substance,measurement,setting,value
"Wt Axl: first Ig domain of Axl, amino acids 19-132 (Genbank P30530), SEQ ID NO: 61 [reference compound]",Tm (° C.),[1],41 ± 0.6 °C
same,melting temperature (Tm),[1],41 °C
same,binding to soluble αvβ3 integrin,αvβ3 integrin,no native affinity
